Here are results for 14 compounds from ChEMBL document CHEMBL3616409, “Optimization of a small molecule probe that restores e-cadherin expression” (Bioorg Med Chem Lett, 2015).

One test is described as follows: Restoration of e-cadherin expression in human SW620 cells by in-cell-western assay. The settings on record: SW-620. It counts as functional, cell-based.
Usually EC50 stands for the concentration that produces a half-maximal response. Read a low EC50 as greater potency. In the case of `O=C(NCCCCNC(=O)c1cccnc1O)c1cc(-c2ccccc2)on1`, the concentration for a half-maximal effect (EC50) is 3.1 µM.

The nature of another test: Restoration of e-cadherin expression in human SW620 cells at 10 uM by in-cell-western assay relative to control. As to conditions: SW-620. The format is functional, cell-based. In short, it runs like this: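 In-Cell-Western immunofluorescence read-out of e-cadherin in SW620 colon carcinoma cells after treatment at 10 μM; value is average fold change from two assessments.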
On to `N#Cc1ccnc(NCCCNC(=O)c2cc(-c3ccccc3)on2)c1`, for which the fold change (FC) was determined as 5.77.
On the same count and under the same terms, in the case of `O=C(Cc1c[nH]c2ccccc12)NCCCCNC(=O)c1cc(-c2ccccc2)on1` it was 4.2.
On the same count and under the same terms, in the case of `O=C(NCCCNC(=O)c1nccs1)c1cc(-c2ccccc2)on1` it was 8.98.
The same measure, in the same setting: in the case of `O=C(NCCCCc1ccncc1)c1cc(-c2ccco2)on1` it was 4.36; in that of `O=C(NCCCCNC(=O)c1ccc(Cl)o1)c1cc(-c2ccccc2)on1`, 4.43.
Compound `O=C(NCCCNC(=O)c1cc(-c2ccccc2)on1)c1ccncc1` gave a fold change (FC) of 2.79.
The same measure, in the same setting: in the case of `O=C(NCCCCNC(=O)c1cc(-c2cccs2)on1)c1cccnc1` it was 4.55; in that of `Cc1ccc(C(=O)NCCCCNC(=O)c2cc(-c3ccccc3)on2)c(O)n1`, 4.58; in that of `O=C(Cc1ccccc1O)NCCCNC(=O)c1cc(-c2ccccc2)on1`, 3.4.
Still for that read-out and setting: in the case of `[N-]=[N+]=Nc1ccnc(NCCCNC(=O)c2cc(-c3ccccc3)on2)n1` it was 15.9; in that of `CC(=O)n1cc(CNCCCNC(=O)c2cc(-c3ccccc3)on2)c2ccccc21`, 6.09; in that of `Nc1cncc(C(=O)NCCCCNC(=O)c2cc(-c3cccs3)on2)n1`, 4.26.
With `O=C(NCCCCNC(=O)c1cc(-c2ccccc2)on1)c1cccnc1`, the fold change (FC) amounted to 4.43.
